Assay results published in patent US20100298380A1, “N-ARYL-N-PIPERIDIN-4-YLMETHYL-AMIDE DERIVATIVES AND THIER USE AS MONOAMINE NEUROTRANSMITTER RE-UPTAKE INHIBITORS” (published 2010).

Protein sequences, listed by entry. Tags and fused reporters are not part of them. Residues count along the entry.
UniProt P23977, whole entry, looked up: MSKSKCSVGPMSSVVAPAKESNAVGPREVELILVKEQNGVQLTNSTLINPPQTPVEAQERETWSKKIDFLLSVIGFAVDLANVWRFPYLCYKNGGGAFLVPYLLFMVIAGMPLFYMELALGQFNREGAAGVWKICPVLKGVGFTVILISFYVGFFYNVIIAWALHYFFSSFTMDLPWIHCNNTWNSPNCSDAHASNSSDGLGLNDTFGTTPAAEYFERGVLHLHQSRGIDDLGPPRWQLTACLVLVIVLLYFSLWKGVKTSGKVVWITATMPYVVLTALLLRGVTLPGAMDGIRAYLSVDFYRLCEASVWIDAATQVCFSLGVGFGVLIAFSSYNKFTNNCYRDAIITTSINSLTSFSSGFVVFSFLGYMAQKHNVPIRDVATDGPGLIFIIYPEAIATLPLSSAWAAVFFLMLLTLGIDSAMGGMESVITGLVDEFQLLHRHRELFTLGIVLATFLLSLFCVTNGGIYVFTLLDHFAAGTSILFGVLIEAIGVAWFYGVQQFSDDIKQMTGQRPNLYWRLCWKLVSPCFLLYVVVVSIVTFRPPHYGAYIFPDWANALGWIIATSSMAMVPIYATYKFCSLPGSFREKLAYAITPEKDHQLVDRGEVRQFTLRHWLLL
UniProt Q9WTR4, 1-597: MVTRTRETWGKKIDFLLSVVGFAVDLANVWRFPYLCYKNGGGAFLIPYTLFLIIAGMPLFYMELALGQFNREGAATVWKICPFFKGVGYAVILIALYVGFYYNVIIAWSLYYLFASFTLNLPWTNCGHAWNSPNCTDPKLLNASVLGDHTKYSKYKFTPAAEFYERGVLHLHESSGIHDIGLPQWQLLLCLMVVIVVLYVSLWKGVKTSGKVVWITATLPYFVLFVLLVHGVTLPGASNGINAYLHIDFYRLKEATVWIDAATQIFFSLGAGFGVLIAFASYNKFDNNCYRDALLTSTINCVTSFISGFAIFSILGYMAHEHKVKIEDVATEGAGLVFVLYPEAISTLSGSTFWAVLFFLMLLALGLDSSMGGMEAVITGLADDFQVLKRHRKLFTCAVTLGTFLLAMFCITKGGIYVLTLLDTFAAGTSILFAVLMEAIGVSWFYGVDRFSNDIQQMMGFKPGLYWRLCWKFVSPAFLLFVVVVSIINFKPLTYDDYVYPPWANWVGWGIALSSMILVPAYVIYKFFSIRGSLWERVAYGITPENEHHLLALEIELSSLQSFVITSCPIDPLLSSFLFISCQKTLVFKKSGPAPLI
UniProt P31652, whole entry, looked up: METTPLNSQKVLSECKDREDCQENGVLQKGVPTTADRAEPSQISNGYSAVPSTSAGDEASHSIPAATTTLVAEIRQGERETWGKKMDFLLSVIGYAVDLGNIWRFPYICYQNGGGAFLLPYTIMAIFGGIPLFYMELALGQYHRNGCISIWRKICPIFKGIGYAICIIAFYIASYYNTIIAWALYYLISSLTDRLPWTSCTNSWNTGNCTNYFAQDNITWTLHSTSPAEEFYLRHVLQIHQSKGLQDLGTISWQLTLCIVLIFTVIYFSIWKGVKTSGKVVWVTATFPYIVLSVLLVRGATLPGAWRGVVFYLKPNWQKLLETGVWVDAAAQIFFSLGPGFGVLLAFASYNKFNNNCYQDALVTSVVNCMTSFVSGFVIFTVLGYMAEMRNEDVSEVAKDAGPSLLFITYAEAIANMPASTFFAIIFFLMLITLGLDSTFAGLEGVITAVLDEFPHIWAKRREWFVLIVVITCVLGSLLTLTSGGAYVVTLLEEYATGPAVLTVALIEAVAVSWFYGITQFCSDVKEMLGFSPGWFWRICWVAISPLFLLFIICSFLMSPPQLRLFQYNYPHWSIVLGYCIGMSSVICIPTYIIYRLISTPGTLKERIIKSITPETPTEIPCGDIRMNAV

Experiments:
[1] = target: reuptake of dopamine (DA) in synaptosomes (Rattus norvegicus, UniProt P23977); assay: inhibition of DA reuptake in synaptosomes; details: read-out: DA-uptake IC50, 3H-DA
[2] = target: reuptake of noradrenaline (NA) in synaptosomes (Rattus norvegicus, UniProt Q9WTR4); assay: inhibition of NA reuptake in synaptosomes; details: read-out: NA-uptake IC50, 3H-NA
[3] = target: reuptake of serotonine (5-HT) in synaptosomes (Rattus norvegicus, UniProt P31652); assay: inhibition of 5-HT reuptake in synaptosomes; details: read-out: 5-HT-uptake IC50, 3H-5-HT

Structure (SMILES) | IC50 [1] | IC50 [2] | IC50 [3]
C=C(C)n1c(=O)n(CCN2CCC(CN(C(=O)CC)c3ccc(Cl)c(Cl)c3)CC2)c2ccccc21 | 15 nM | 20 nM | 1200 nM
C=C(C)n1c(=O)n(CCN2CCC(CN(C(=O)CC)c3cccc(Cl)c3)CC2)c2ccccc21 | 48 nM | 160 nM | 1600 nM
C=C(C)n1c(=O)n(CCN2CCC(CN(C(C)=O)c3ccc(Cl)c(Cl)c3)CC2)c2ccccc21 | 340 nM | 140 nM | > 1000 nM
CCC(=O)N(CC1CCN(CCn2c(=O)n(C3=CCCC3)c3ccccc32)CC1)c1ccc(Cl)c(Cl)c1 | 13 nM | 36 nM | 360 nM
C=C(C)n1c(=O)n(CCN2CCC(CN(C(=O)COC)c3ccc(Cl)c(Cl)c3)CC2)c2ccccc21 | 240 nM | 270 nM | > 1000 nM
